# Source: PubChem BioAssay AID504797 (The Scripps Research Institute Molecular Screening Center, 2011)
# The list shows a part of the results, in another mix than the full data. Calls of active or inactive are those of the source. No stated cut-off is given here; in the data, active means activation above about 19%; inactive means the rest.
# Target: cAMP-dependent protein kinase type II-beta regulatory subunit (Homo sapiens) (UniProt P31323)
# Assay: activators of PKA-R2B holoenzyme, confirmation, biochemical, fluorescence polarization, human (AID 504797)
# Details: PKA-R2B complex, at 11.4 µM, hits give high values
smiles,measurement,value
c1nnnn1CCn1cnnn1,activation,inactive: 1.84%
